From patent US7094593B1, “Method for improving the function of heterologous G protein-coupled receptors” (priority 1998, dated 2006)

The chains behind the UniProt entries cited, without tags or fusion partners.
UniProt P20789, whole entry: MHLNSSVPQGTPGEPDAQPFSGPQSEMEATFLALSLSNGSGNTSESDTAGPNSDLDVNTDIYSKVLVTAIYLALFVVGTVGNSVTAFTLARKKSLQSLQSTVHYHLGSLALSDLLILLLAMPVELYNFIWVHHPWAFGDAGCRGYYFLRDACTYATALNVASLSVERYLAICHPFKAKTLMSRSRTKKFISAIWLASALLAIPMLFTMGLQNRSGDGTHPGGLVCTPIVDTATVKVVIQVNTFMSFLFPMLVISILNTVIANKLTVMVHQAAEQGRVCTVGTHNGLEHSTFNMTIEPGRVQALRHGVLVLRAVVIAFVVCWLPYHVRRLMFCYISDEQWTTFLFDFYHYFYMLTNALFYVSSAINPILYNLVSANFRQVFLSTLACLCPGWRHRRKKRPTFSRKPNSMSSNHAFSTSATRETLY

Molecular target: wild type NTR1 (Rattus norvegicus, UniProt P20789)
Settings: read-out: EC50 of growth response; yeast cells expressing wild type NTR1, 18 hours

pEC50: 5.68
Substance: acetyl neurotensin 8-13 [AcNT8-13]

pEC50: −log10 of the molar value.
